The results in this text go back to patent US20230024108A1, “ADENOSINE A2A RECEPTOR ANTAGONISTS” (Teon Therapeutics, Inc., priority 2019, published 2023).

By UniProt entry, the sequences of proteins in these tests, tags left out. Where a name states a change or a piece, a line headed by the entry shows the natural chain unless it says otherwise.
UniProt P30542, whole entry: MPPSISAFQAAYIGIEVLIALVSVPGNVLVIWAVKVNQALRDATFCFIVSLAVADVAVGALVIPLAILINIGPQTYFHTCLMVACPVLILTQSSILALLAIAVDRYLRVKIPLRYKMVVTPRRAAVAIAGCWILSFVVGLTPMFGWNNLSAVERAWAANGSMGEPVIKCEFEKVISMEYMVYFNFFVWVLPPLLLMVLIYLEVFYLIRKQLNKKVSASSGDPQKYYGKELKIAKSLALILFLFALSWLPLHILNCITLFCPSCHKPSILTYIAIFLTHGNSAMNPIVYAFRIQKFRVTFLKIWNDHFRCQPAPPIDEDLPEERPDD
UniProt P29275, whole entry: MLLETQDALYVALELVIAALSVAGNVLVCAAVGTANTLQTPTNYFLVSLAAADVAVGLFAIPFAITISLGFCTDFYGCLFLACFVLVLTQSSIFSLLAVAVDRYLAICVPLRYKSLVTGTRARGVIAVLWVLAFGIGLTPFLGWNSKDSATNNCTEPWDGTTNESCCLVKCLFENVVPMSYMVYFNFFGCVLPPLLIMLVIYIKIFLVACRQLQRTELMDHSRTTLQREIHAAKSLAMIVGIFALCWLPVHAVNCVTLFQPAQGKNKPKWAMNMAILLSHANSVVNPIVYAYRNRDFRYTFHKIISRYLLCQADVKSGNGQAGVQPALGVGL

For one assay, the target named is A1AdoR (Homo sapiens, UniProt P30542). Kind of assay: Adenosine receptor binding assay, A1 ([3H]-DPCPX). As to conditions: ratio A1 vs A2A binding. The method, then:
(§1) Membranes prepared from CHO-K1 cells stably expressing Human AiAdoR (ES-010-M400UA), HEK-293 cells stably expressing human A2A AdoR (RBHA2AM400UA), HEK-293 cells stably expressing human A2B AdoR (ES-013-M400UA) and CHO-K1 cells stably expressing Human A3 AdoR (ES-012-M400UA) were purchased from PerkinElmer (Waltham, Mass., USA) and stored at −80° C. until use. Binding assays are performed using the radioligands. The final concentrations are as follows: [3H]-DPCPX (PerkinElmer, NET974001MC) at 1 nM for A1AdoR; [^3H]-CGS-21680 (PerkinElmer, NET1021250UC) at 6 nM for A2AAdoR, [3H]-DPCPX (PerkinElmer, NET974001MC) at 8 nM for A2BAdoR; [^3H]-HEMADO (ARC, Cat: ART1456) at 1 nM for A3AdoR. […] Nonspecific binding (Low control: LC) and total binding (High control: HC) are determined in the presence or absence of saturated cold ligand. Specific binding is calculated by subtracting nonspecific binding from total binding. […] The filters are dried for 1 hour at 50° C. and [^3H] trapped on filter counted for radioactivity in Perkin Elmer Microscint 20 cocktail (#6013329) using Perkin Elmer MicroBeta2 Reader. […] Data are analyzed and IC50 is calculated using GraphPad Prism 5 and the model “log(inhibitor) vs. response—Variable slope”. The binding affinity of the compounds is determined by using the Cheng and Prusoff equation Ki=IC50/(1+[radioligand]/Kd).

The subject of another assay is phospho-CREB (pCREB). Kind of assay: Human whole blood phospho-CREB (pCREB) assay / modulation of pCREB in human immune cells. Particulars: read-out: pCREB EC50; agonist (NECA or CGS-21680)-stimulated human blood cells. Here is the method:
Fresh human blood samples are derived from healthy volunteers and processed in heparin tubes. 67.5 ul of whole blood is aliquoted to each well in a 96-well plate and incubated at 37° C. for 30 min. Testing compounds are diluted with DMSO to make 8-point 3-fold serial dilution and 3.5 ul (20×) is added to each well. Cells are incubated with the compounds at 37° C. for 30 min. NECA (5 uM) is then added to each well and cells are incubated for 30 min at 37° C. Following the stimulation, cells are transferred to a 96-well deep well plates and fixed with 1 ml/well of lyse/fix buffer (1×) (BD Biosciences #558049) with vigorous shake at 37° C. for 10 min. Cells are centrifuged at 600 g for 6 min and washed twice with PBS, followed by addition of 800 ul/well Perm buffer III (BD Biosciences #558050). […] Data were analyzed using FlowJo version 9. The level of CREB phosphorylation from unstimulated cells (Low control: LC) and NECA-stimulated cells (High control: HC) are determined as mean fluorescent intensity (MFI) in stimulated condition/mean fluorescent intensity in unstimulated condition. % Inhibition is calculated as (MFI of HC-MFI of assay well)/(MFI of HC-MFI of LC)×100%. Data are analyzed and IC50s calculated using GraphPad Prism 5 and the model “log(inhibitor) vs. response—Variable slope”. […]

Another assay deals with human A2A AdoR (Homo sapiens, UniProt P29274). Kind of assay: Adenosine receptor binding assay, A2A ([3H]-CGS-21680). As to conditions: read-out: hA2A IC50; membranes of HEK-293 cells expressing human A2A AdoR. Here is the method:
as §1

The next assay addresses human A2B AdoR (Homo sapiens, UniProt P29275). The assay can be described thus: Adenosine receptor binding assay, A2B ([3H]-DPCPX). As to conditions: ratio A2B vs A2A binding. Here is the method: as §1

As for `N#Cc1cc2c(nc(N)n3nc(-c4ccccn4)nc23)n1CCN1CCN(c2ccc(OCC(=O)O)cc2)CC1`, the “A1/A2A Selectivity” value on A1AdoR is recorded as “b (greater than 100 but less than or equal to 1000)”. Also, the EC50 with phospho-CREB (pCREB) fell in the range of 20 to 100 nM. Also, the IC50 on human A2A AdoR is < 20 nM. The “A2B/A2A Selectivity” value at human A2B AdoR is “a (greater than 1000)”.
